Reader value (lateral flow, CF1522-gold) with MMP data for one substance are collected here from patent publication US20250157661.

This data set deals with Indicator molecule containing the cleavable sequence GPQGIFGQ with a terminal biotin group connected via a polyethylene glycol spacer/linker (intact, Examples 1-6).

As to MMP13 (Enzo), the Reader value (lateral flow, CF1522-gold) with MMP at 0.5 ug/ml was found to be 6350 reader units.
